These are literature values, as cited in patent US20200129630A1, “METHODS FOR TREATING CANCER” (BicycleRD Limited, priority 2018, published 2020).

The conditions of data set [1]: 120 and 360 mg/m^2 (2 and 6 mg/m^2 DM1 content); cited from earlier work.
For data set [2] the following is noted: cited from earlier work.

With T-DM1, the axonal degeneration entry in data set [1] is reported as “moderate to severe axonal degeneration”. For the same substance, in data set [2] (GATSBY), the AE anemia is 21-33%, the AE fatigue is 33%, the AE neutropenia is 10% and the AE peripheral neuropathy is on record as 10%. Also, in data set [2] (GATSBY), the AE thrombocytopenia is 26% and the AE transaminitis is 16%. Besides, the “GI AEs” value in data set [2] (GATSBY, constipation, vomiting, diarrhea, nausea, abdominal pain) is recorded as 25%. In addition, in data set [2] (human, in vivo), the “patients experiencing peripheral neuropathy” value was 20% and the t1/2 is approximately 96 h.
